Laboratory results reported in patent publication US11466013B2 (Betta Pharmaceuticals Co., LTD, priority 2018, dated 2022).

Protein sequences, listed by entry. Tags and fused reporters are not part of them.
UniProt P28482, whole entry: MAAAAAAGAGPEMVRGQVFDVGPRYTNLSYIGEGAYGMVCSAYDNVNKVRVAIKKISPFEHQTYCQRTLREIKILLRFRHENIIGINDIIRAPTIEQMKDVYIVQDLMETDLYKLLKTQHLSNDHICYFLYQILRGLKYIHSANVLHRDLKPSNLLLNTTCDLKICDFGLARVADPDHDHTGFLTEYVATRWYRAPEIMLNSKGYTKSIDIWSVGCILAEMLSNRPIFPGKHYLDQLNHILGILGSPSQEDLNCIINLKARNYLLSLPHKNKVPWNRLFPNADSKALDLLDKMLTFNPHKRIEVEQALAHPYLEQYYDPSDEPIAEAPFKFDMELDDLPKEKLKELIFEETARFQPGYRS
UniProt P27361, whole entry: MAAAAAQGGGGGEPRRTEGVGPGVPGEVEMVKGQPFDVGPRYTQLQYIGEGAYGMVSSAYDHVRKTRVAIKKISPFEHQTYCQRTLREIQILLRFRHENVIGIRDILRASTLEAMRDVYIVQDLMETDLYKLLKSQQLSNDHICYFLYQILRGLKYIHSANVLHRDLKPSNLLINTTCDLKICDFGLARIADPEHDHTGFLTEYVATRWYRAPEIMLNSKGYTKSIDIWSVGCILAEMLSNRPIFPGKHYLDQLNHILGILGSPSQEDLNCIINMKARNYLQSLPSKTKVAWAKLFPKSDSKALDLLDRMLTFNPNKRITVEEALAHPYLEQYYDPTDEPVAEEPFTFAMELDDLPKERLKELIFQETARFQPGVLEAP

Assays:
ERK2 = ERK2 (Homo sapiens, UniProt P28482); assay: Kinase assay (Caliper, FAM-labeled peptide), ERK2; settings: read-out: IC50(nM) ERK2
Experimental: (§1) The compound was diluted to the desired concentration with DMSO, transferred 100 μL to a 96-well plate, and performed a gradient dilution 10 μL of compound from each well was taken and mixed with 90 μL of kinase buffer, and then transferred 5 μL from each well to a 384-well plate. Kinase and FAM-labeled peptide and ATP were added to 1× kinase alkaline buffer to obtain 2.5× enzyme solution and 2.5× peptide solution, 10 μL of 2.5× enzyme solution was added to the 384-well assay plate. After incubating for 10 minutes at room temperature, 10 μL of 2.5× peptide solution was added to the 384-well plate. After reacting for a specific time at […], 25 μL of termination buffer was added to stop reaction. After reading the collected data on Caliper, the data was converted to inhibition percentage. Inhibition percentage=(maximum value−conversion value)/(maximum value−minimum value)*100.
(§2) The “maximum” is the DMSO control, the “minimum” indicates the low control.
(§3) Graphpad Prism software was used to perform curve fitting and obtain IC50 value.

ERK1 = ERK1 (Homo sapiens, UniProt P27361); assay: Kinase assay (Caliper, FAM-labeled peptide), ERK1; settings: read-out: IC50(nM) ERK1
Experimental: as §1, §2, §3

## COC[C@H]1Cn2cc(-c3cc(NC(C)C)ncc3F)cc2C(=O)N1Cc1cc(F)ccc1CO
ERK2
  IC50: 0.87 nM
ERK1
  IC50: 0.76 nM
